Results on one substance are retold here after patent publication US7431914B2, “Contrast agent” (GE Healthcare AS, priority 2003, dated 2008).

The target of the experiment is T1, AT1 receptor (Homo sapiens, UniProt P30556).
T1 construct: expressed in transfected cells; host or cells: CHO cells (membranes)
Description: Ki determination, competition binding assay for AT1 with 125I-Sar1-Ile8-Angiotensin II. As to conditions: competition with 125I-Sar1-Ile8-Angiotensin II; membranes from CHO cells expressing the AT1 receptor; Cheng-Prussoff.

One may read the Ki as a dissociation constant, usually derived from enzyme kinetics or from competition with a known ligand. Read a low Ki as tighter binding. The substance “Losartan-Leu-Diglycoloyl-PEG(4)-Diglycolyl-cPn216 [Example 1]” displayed an inhibition constant (Ki) of 0.5 nM.
